The values below are quoted from earlier work in PMC9085562.

By UniProt entry, the sequences of proteins in these tests, tags left out. Residues count along the entry.
UniProt P06241, 79-146: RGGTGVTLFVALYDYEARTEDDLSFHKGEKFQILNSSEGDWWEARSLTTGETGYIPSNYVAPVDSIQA

This data set has as its target class I peptide.

Regarding Fyn SH3 (from UniProt P06241), the Kd was 180 nM.

Usually Kd stands for the equilibrium constant for the complex coming apart.
